{"sequences": {"note": "Chains of the proteins cited; added tags and fusions are not shown. Lines headed by an entry give the natural chain unless they say otherwise; changes in a name come on top.", "UniProt P05107, whole entry": "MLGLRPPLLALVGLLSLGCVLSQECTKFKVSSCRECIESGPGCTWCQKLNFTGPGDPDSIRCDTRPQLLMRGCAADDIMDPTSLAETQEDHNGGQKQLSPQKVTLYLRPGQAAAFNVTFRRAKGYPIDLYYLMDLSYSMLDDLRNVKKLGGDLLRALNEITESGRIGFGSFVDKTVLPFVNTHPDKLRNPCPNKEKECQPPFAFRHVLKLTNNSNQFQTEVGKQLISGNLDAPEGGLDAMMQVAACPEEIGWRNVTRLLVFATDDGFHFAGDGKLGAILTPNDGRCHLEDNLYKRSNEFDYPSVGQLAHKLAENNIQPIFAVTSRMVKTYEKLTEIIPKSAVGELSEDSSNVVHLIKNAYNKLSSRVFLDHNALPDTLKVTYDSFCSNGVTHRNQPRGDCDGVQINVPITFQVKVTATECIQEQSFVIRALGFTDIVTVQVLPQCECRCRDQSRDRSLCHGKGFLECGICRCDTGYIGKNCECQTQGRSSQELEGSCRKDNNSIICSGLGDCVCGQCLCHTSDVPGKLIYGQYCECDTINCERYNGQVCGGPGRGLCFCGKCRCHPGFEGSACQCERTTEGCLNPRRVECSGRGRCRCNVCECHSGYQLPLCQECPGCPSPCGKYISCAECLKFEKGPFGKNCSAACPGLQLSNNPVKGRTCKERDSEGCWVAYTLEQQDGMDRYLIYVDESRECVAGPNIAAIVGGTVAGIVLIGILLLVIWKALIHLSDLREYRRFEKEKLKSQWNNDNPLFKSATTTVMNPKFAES", "UniProt P20701": "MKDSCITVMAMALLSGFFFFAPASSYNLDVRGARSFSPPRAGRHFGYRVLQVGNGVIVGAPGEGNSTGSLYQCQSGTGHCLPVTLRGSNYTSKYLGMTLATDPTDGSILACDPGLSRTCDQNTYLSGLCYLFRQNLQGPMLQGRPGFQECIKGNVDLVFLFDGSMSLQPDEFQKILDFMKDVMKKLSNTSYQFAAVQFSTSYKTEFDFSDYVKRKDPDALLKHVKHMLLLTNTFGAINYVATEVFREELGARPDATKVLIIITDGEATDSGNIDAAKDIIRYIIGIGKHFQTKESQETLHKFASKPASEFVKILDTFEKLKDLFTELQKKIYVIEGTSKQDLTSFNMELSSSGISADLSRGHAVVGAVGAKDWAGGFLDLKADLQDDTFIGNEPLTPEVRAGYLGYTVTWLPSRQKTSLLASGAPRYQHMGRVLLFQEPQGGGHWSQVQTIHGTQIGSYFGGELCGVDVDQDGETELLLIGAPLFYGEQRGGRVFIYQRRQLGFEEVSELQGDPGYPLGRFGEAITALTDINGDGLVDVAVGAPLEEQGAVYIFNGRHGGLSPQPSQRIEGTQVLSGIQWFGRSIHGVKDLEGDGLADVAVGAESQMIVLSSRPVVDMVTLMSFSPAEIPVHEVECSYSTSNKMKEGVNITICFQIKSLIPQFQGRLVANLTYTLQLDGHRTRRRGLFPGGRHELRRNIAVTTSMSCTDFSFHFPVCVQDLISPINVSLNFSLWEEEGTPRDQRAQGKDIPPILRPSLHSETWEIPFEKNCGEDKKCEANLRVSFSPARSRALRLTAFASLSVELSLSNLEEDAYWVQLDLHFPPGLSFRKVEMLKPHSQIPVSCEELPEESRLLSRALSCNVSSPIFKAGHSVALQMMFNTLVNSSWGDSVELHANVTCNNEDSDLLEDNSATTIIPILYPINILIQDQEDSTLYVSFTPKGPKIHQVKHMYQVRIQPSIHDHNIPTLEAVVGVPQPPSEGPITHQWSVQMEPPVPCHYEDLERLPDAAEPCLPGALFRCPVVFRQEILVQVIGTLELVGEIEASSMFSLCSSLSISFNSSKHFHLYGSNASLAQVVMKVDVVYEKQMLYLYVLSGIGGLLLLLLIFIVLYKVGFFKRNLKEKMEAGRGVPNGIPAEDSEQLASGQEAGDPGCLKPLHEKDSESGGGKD"}, "source": "ChEMBL document CHEMBL1134304", "about": "“Discovery of novel p-arylthio cinnamides as antagonists of leukocyte function-associated antigen-1/intercellular adhesion molecule-1 interaction. 4. Structure-activity relationship of substituents on the benzene ring of the cinnamide” (J Med Chem, 2001)", "target": "Intercellular adhesion molecule (ICAM-1), Integrin alpha-L/beta-2 (Homo sapiens, UniProt P05107+P20701)"}
{"smiles": "CC(=O)N1CCN(C(=O)/C=C/c2ccc(Sc3ccccc3C(C)C)c([N+](=O)[O-])c2)CC1", "note": "[A-286982]", "values": [{"measurement": "IC50", "value": 0.03, "unit": "µM"}]}
